Data taken from US9303045B2, “5-HT3 receptor antagonists” (Takeda Pharmaceutical Company Limited, priority 2013, dated 2016).
Counter-ions that a name gives are not always drawn.

The chains behind the UniProt entries cited, without tags or fusion partners. Residues count along the entry.
UniProt P46098, 24-478: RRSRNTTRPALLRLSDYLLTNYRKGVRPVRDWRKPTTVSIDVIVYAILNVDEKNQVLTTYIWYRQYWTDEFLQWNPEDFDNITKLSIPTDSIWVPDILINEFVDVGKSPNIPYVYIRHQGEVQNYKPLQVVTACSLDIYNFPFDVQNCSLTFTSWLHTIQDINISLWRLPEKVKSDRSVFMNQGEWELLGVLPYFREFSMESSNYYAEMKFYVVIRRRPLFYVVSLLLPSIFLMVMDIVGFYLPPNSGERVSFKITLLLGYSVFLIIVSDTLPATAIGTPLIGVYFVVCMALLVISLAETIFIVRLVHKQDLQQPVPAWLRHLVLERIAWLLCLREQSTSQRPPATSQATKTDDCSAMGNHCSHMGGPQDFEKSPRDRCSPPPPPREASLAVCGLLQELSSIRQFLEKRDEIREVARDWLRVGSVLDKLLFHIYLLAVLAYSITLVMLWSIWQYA

Target: 5HT3a receptor expressed in HEK-293T cells (Homo sapiens (Human), UniProt P46098)
Experiment: Inhibition of Ca flux activity of 5HT3 in vitro assay
Assay type: cell-based
Details: calcium flux, 5HT 216 nM, approximate values
Experimental: Inhibition of Ca Flux Activity of 5HT3 In Vitro Assay
The 5HT3 antagonist activity of the compounds of the invention was determined by measuring the ability of the compounds to inhibit the calcium flux activity of […] receptor expressed in HEK-293T cells. HEK-293T cells were transfected with the 5HT3a expression construct using Xtreme Gene 9 (Roche) in 150 mm tissue culture treated plates and incubated for 24 hours at 37° C. Cells were then split and plated at a density of 60K cells/well in poly-lysine coated, black 96-well plates with clear bottoms (BD BioSciences) and incubated overnight at 37° C. Growth media was removed and cells loaded with 200 uL calcium indicator dye in HBSS containing 20 mM HEPES (Calcium 5 Assay kit, Molecular Devices) and incubated at 37° C. for 1 hour. While cells were incubating, the 10× antagonist and agonist/antagonist addition plates were made. […] Test plate and addition plate were loaded into the FlexStation III (Molecular Devices), and using the fluidics, 22.5 uL compound additions were made (at t=˜17 seconds), and fluorescence was measured for 90 seconds, reading every 2.2 seconds. Data sets were analyzed as max minus min using Software Max Pro (Molecular Devices). […]

Structure (SMILES) | IC50 [nM]
CN1C2COCC1CC(NC(=O)c1cn(CC(F)F)c3ncc(F)cc13)C2 [Example 68, 1-(2,2-difluoroethyl)-5-fluoro-N-((1R,5S,7S)-9-methyl-3-oxa-9-azabicyclo[3.3.1]nonan-7-yl)-1H-pyrrolo[2,3-b]pyridine-3-carboxamide, 2,2,2-trifluoroacetate] | 0.95
CN1[C@@H]2COC[C@H]1C[C@@H](OC(=O)c1cn(CC#N)c3c(F)nccc13)C2 [Example 142, (1R,5S,7s)-9-methyl-3-oxa-9-azabicyclo[3.3.1]nonan-7-yl 1-(cyanomethyl)-7-fluoro-1H-pyrrolo[2,3-c]pyridine-3-carboxylate, 2,2,2-trifluoroacetic acid salt] | 0.946
